The target of the assay is Aldehyde dehydrogenase 1A3 (ALDH1A3) (Homo sapiens, UniProt P47895). Kind of assay: X-ray co-crystal structure ([…] Å) plus enzyme inhibition kinetics on recombinant human ALDH1A3 (IC50 […]).

pKi: −log10 of the molar value.

As for `N#Cc1cccc(-c2ccc3nc(-c4ccccc4)cn3c2)c1`, the pKi (usually −log10 of the Ki, conventionally taken in molar units) was 5.43.

These data come from publication PMC7835878, “A Selective Competitive Inhibitor of Aldehyde Dehydrogenase 1A3 Hinders Cancer Cell Growth, Invasiveness and Stemness In Vitro” (Cancers, 2021).
